The source of these data is patent US20090209571A1, “Phenanthrene derivatives as MPGES-1 inhibitors” (priority 2006, published 2009).

Sequences of proteins named here, by UniProt entry; tags and fusion partners are left off.
UniProt O14684, whole entry: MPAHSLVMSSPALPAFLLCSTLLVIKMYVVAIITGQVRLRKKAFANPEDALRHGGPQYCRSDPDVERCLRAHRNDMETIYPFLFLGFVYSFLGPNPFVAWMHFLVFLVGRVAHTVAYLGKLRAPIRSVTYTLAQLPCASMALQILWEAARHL

In the assay the target is human mPGES-1 (Homo sapiens, UniProt O14684). Put plainly: Microsomal Prostaglandin E Synthase Assay. The note with it: read-out: h-CHO (nM), potency expressed as IC50; microsomal fractions from CHO-K1 cells transiently transfected with human mPGES-1 cDNA; 1 μM PGH2; PGE2 by EIA; average of at least n=3. The method, then:
Compounds are tested as inhibitors of prostaglandin E synthase activity in microsomal prostaglandin e synthases, whole cell and in vivo assays. These assays measure prostaglandin E2 (PGE2) synthesis using either Enzymatic Immunoassay (EIA) or mass spectrometry. Cells used for microsomal preparation are CHO-K1 cells transiently transfected with plasmids encoding the human mPGES-1 cDNA. Cells used for cell-based experiments are human A549 (which express human mPGES-1). Guinea pigs are used to test the activity of selected compounds in vivo. In all these assays, 100% activity is defined as the PGE2 production in vehicle-treated samples. IC50 and ED50 represent the concentration or dose of inhibitor required to inhibit PGE2 synthesis by 50% as compared to the uninhibited control.
Prostaglandin E synthase microsomal fractions are prepared from CHO-K1 cells transiently transfected with plasmid encoding the human mPGES-1 cDNA. Microsomes are then prepared and the PGES assay begins with the incubation of 5 μg/ml microsomal PGES-1 with compound or DMSO (final 1%) for 20-30 minutes at room temperature. The enzyme reactions are performed in 200 mM KPi pH 7.0, 2 mM EDTA and 2.5 mM GSH-reduced form. The enzymatic reaction is then initiated by the addition of 1 μM final PGH2 substrate prepared in isopropanol (3.5% final in assay well) and incubated at room temperature for 30 seconds. The reaction is terminated by the addition of SnCl2 in 1N HCl (1 mg/ml final). Measurement of PGE2 production in the enzyme reaction aliquots is done by EIA using a standard commercially available kit (Cat #: 901-001 from Assay Designs).
The potency is expressed as IC50 and the value indicated is an average of at least n=3.
By IC50 is commonly meant the concentration at which inhibition is half-maximal. In the case of `Fc1cccc(Cl)c1-c1nc2c3ccccc3c3ccsc3c2[nH]1`, the IC50 was 20.7 nM.

As for `Fc1cccc(Cl)c1-c1nc2c3ccccc3c3ncccc3c2[nH]1`, the IC50 was found to be 237 nM. Regarding `CC(=O)OC(C)(C)Cc1ccc2c(n1)c1cc(OCC3CC3)ccc1c1nc(-c3c(C#N)cccc3C#N)[nH]c21`, the IC50 turned out to be 2.1 nM.
